Assay: Phase solubility studies: comparison of the six PAHs across the three CDs
Details: reached with 0.1 M of the CD

- Decreasing order of PAHs apparent solubility: ACE>PHE>FLU>FLT>PYR>ANT
Substance: hydroxypropyl-γ-CD [HP-γ-CD]
